Target: human 11β-HSD1 (Homo sapiens, UniProt P28845)
Assay: biochemical
Conditions: 1.5 h, read-out: Biological Test Example 2 Average % inhibition at 100 nm

Protein sequences, listed by entry. Tags and fused reporters are not part of them. Lines headed by an entry give the natural chain unless they say otherwise; changes in a name come on top.
UniProt P28845: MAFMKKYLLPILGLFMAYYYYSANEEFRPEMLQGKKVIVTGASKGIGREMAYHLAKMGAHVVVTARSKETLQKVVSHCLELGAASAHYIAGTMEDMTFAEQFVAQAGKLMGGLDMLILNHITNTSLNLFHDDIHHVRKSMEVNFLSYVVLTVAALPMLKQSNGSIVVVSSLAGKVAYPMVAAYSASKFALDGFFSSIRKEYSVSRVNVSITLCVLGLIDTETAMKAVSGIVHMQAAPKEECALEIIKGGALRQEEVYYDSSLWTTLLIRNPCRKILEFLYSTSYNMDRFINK

## CC(C)(C)OC(=O)N(CCO)[C@@H]1CCN(C(=O)O[C@H]2C3CC4CC2C[C@](C(N)=O)(C4)C3)C1 [Example 28, (R)-(1-carbamoyl-4-adamantyl) 3-(tert-butoxycarbonyl(2-hydroxyethyl)amino)pyrrolidine-1-carboxylate]
  inhibition at 0.1 µM: 86.1%

Source: patent US8828985B2, “Carbamate and urea inhibitors of 11-beta-hydroxysteroid dehydrogenase 1” (Vitae Pharmaceuticals, Inc., priority 2008, dated 2014)
